Experimental data from PubChem BioAssay (Tox21).
The list shows a part of the results, in another mix than the full data. Results filed as inconclusive are left out. Calls of active or inactive are those of the source. Unless noted, calls follow the shape of the dose curve; as a rule, active = well fitted curve in the direction sought with a large enough effect in the repeat runs; inconclusive = weak or mixed curves; inactive = no such curve, though single readings can be large; an effect the other way counts as inactive or inconclusive.

Sequences of proteins named here, by UniProt entry; tags and fusion partners are left off.
UniProt P04150, whole entry: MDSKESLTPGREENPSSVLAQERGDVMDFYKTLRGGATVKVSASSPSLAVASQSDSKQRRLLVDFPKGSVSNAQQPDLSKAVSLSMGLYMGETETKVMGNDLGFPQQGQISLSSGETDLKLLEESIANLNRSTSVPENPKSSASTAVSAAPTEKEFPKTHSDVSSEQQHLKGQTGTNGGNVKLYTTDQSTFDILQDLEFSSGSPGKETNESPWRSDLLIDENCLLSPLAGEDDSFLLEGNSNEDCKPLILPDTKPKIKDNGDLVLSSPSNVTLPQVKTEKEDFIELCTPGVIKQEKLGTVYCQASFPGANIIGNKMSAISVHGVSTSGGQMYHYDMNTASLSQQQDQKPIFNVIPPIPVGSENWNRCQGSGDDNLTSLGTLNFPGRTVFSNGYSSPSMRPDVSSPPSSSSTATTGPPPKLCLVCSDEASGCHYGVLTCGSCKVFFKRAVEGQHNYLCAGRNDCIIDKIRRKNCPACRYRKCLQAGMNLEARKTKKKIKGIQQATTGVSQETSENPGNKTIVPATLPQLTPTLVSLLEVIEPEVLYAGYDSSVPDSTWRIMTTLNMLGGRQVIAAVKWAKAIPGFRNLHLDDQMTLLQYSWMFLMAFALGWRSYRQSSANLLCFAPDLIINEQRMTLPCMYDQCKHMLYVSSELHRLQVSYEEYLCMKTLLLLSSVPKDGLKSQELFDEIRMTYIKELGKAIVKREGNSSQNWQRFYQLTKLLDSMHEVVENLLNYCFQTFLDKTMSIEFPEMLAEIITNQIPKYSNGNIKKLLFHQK

Tests used:
[1] = qHTS assay for small molecule agonists of the p53 signaling pathway (AID 651631; calls by dose curve; also: nearly all actives have a fitted effect of over 15% in size); conditions: HCT-116 p53RE-bla reporter, beta-lactamase FRET ratio, 16 h; at 73.3 µM (top of the series)
Summary of the method: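 Testing took place in human colorectal HCT-116 cells with stable p53RE-driven beta-lactamase. After 16 h of compound exposure at 37 °C, a FRET substrate was added and fluorescence recorded 2 h later.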

[2] = qHTS assay for small molecules that induce genotoxicity in human embryonic kidney cells expressing luciferase-tagged ATAD5 (AID 651632); conditions: HEK293T ATAD5-luciferase induction, 16 h; series mostly up to 83.3 µM; also: nearly all actives have a fitted effect of over 15% in size
Summary of the method: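 HEK293T cells carrying a luciferase reporter tagged to ATAD5 were exposed to compound or DMSO vehicle for 16 hr at 37C, 5% CO2. Amplite was added, and after 30 min at room temperature luciferase activity was read as a marker of ATAD5 induction.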

[3] = qHTS assay for small molecule agonists of the p53 signaling pathway - cell viability (AID 651633; calls by dose curve; also: nearly all actives have a fitted effect of over 30% in size); conditions: p53RE-bla HCT-116 viability, ATP luminescence, 16 h; at 83.3 µM (top of the series)
Summary of the method: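 Viability counter-read: CellTiter-Glo luminescence (30 min, room temperature) in the same p53RE-bla plates. These plates had been exposed to compounds for 16 h at 37 C.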

[4] = qHTS assay for small molecules that induce genotoxicity in human embryonic kidney cells expressing luciferase-tagged ATAD5 - cell viability (AID 651634; calls by dose curve; also: nearly all actives have a fitted effect of over 25% in size); conditions: HEK293T ATAD5-luc cells viability, CellTiter-Fluor, 15.5 h; at 83.3 µM (top of the series)
Summary of the method: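 HEK293T cells expressing luciferase-tagged ATAD5 were exposed to compound or DMSO for 15.5 hr at 37C, 5% CO2. Viability was then read as live-cell protease activity by CellTiter-Fluor fluorescence after 30 min at 37C.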

[5] = qHTS assay for small molecule disruptors of the mitochondrial membrane potential - cell viability (AID 720634; calls by dose curve;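 also: human HepG2 liver cancer cells; nearly all actives have a fitted effect of over 20% in size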); conditions: HepG2 viability, ATP luminescence (CellTiter-Glo), 1 h; at 83.2 µM (top of the series)
Summary of the method: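 HepG2 cells seeded overnight at 37 C, then exposed to compound or DMSO for 1 hr at 37 C, 5% CO2. m-MPI dye added, then CellTiter-Glo for 30 min at room temperature; viability read as ATP luminescence.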

[6] = qHTS assay to test for compound auto fluorescence at 590 nm (red) in HepG2 cells (AID 720674); conditions: HepG2 autofluorescence, red 540/590 nm, 1 h
Summary of the method: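 We screened compounds on adherent HepG2 cells, incubating them for an hour at 37 C in 5% CO2 before reading emission at 590 nm under 540 nm excitation; values reflect equivalence to Rose Bengal sodium fluorescence.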

[7] = qHTS assay to test for compound auto fluorescence at 535 nm (green) in HepG2 cells (AID 720675); conditions: green autofluorescence 485/535 nm, 1 h
[8] = qHTS assay to test for compound auto fluorescence at 460 nm (blue) in HEK293 cells (AID 720678); conditions: blue autofluorescence 405/460 nm
Summary of the method: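 Cells were seeded and left to adhere for 4-5 hr at 37C. Compounds were then pin-transferred. After an overnight incubation at 37C under 5% CO2, intrinsic fluorescence at 405/460 nm was measured and referenced to triamterene.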

[9] = qHTS assay to test for compound auto fluorescence at 590 nm (red) in HEK293 cells (AID 720679); conditions: red autofluorescence 540/590 nm
Summary of the method: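 Each well held 2,000 HEK293 cells in medium containing 10% dialyzed FBS. Following 4-5 hr attachment at 37C, 23 nL test compound or DMSO was added; plates sat overnight, and red fluorescence (540/590nm) was recorded.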

[10] = qHTS assay to test for compound auto fluorescence at 535 nm (green) in HEK293 cells (AID 720680); conditions: green autofluorescence 485/535 nm
[11] = qHTS assay to test for compound auto fluorescence at 460 nm (blue) in HEK293 cell free culture (AID 720681); conditions: cell-free medium, autofluorescence 405/460 nm (blue)
Summary of the method: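 Blue fluorescence (Ex 405/Em 460 nm, triamterene-equivalent) was read immediately after pin transfer of compound or DMSO into medium (DMEM, 10% FBS) without cells.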

[12] = qHTS assay to test for compound auto fluorescence at 535 nm (green) in HEK293 cell free culture (AID 720682); conditions: cell-free medium, green autofluorescence 485/535 nm, active compounds read high
Summary of the method: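 DMEM + 10% FBS, cell-free; cpd or DMSO pinned in; Ex485/Em535 read; output as fluorescein-equivalent signal.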

[13] = qHTS assay to test for compound auto fluorescence at 590 nm (red) in HEK293 cell free culture (AID 720683); conditions: cell-free medium autofluorescence, Ex540/Em590 red
Summary of the method: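 Red-channel autofluorescence of compounds in culture medium (DMEM, 10% FBS), no cells, measured at 540/590 nm. Rose Bengal sodium is the reference fluorophore for equivalence.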

[14] = qHTS assay to test for compound auto fluorescence at 590 nm (red) in HepG2 cell free culture (AID 720684); conditions: cell-free medium autofluorescence, red 540/590 nm
Summary of the method: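 Plate contents were MEM with 10% FBS plus test compound or DMSO, no cells. Fluorescence was recorded with 540 nm excitation and 590 nm emission.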

[15] = qHTS assay to test for compound auto fluorescence at 460 nm (blue) in HepG2 cell free culture (AID 720685); conditions: Cell-free culture medium, blue autofluorescence 405/460 nm
Summary of the method: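 Compound (23 nL) or DMSO pinned into cell-free MEM with 10% FBS; blue fluorescence read at 405/460 nm excitation/emission, expressed as auto-fluorescence equivalency to triamterene.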

[16] = qHTS assay to test for compound auto fluorescence at 535 nm (green) in HepG2 cell free culture (AID 720686); conditions: Cell-free medium, green autofluorescence 485/535 nm
[17] = qHTS assay to test for compound auto fluorescence at 460 nm (blue) in HepG2 cells (AID 720687); conditions: autofluorescence 405/460 nm, 1 h
Summary of the method: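 Blue-channel autofluorescence (Ex/Em 405/460 nm, triamterene-equivalent) was measured after 1 hr compound exposure at 37 C, 5% CO2. Cells were HepG2, plated overnight at 37 C in MEM plus 10% FBS.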

[18] = molecular target: Glucocorticoid receptor (Homo sapiens) (UniProt P04150); test: qHTS assay to identify small molecule agonists of the glucocorticoid receptor (GR) signaling pathway (AID 720691; active = well fitted activation curve with a large enough effect in the signal ratio in the repeat runs, not every such curve was filed as active; the % refers to the signal ratio); conditions: GR-bla HeLa, beta-lactamase reporter ratio, 18 h; at 62.4 µM (top of the series)
[19] = qHTS assay for identifying genotoxic compounds that show differential cytotoxicity against isogenic chicken DT40 cell lines with known DNA damage response pathways - wild type cell line (AID 743012); conditions: DT40 wild type chicken cells viability, CellTiter-Glo, 40 h; at 68.4 µM (top of the series); also: nearly all actives have a fitted effect of over 60% in size
Summary of the method: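 Parental DNA repair-proficient DT40 cells, 300 per well, were pre-incubated ~0.5 h at 37 C/5% CO2, pin-dosed with compounds in DMSO, then incubated 40 h. Viability was read as CellTiter-Glo luminescence after 30 min at room temperature.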
% is scaled to controls: 0 for no effect and ±100 for the full control effect.

CC(C)OP(=O)(F)OC(C)C
inactive: activation [1] 2.27% | Potency [2] | activity change, negative = cytotoxicity [3] -7.18% | activity, negative = cytotoxicity [4] 12.8% | activity change, negative = cytotoxicity [5] 6.37% | fluorescence, relative to Rose Bengal ([6]; at 46 µM (top of the series)) 0.357% | fluorescence, % of fluorescein control ([7]; at 46 µM (top of the series)) 0.0316% | fluorescence, % of triamterene ([8]; at 46 µM (top of the series)) 0.0446% | fluorescence, % of fluorescent control ([9]; at 46 µM (top of the series)) 0.2% | fluorescence, % of fluorescein ([10]; at 46 µM (top of the series)) -0.0505% | fluorescence, % of fluorescent control ([11]; at 46 µM (top of the series)) 0.045% | activity change ([12]; at 46 µM (top of the series)) -0.0236% | fluorescence, % of fluorescent control ([13]; at 46 µM (top of the series)) 0.005% | fluorescence, % of Rose Bengal ([14]; at 46 µM (top of the series)) 0.0019% | fluorescence, % of fluorescent control ([15]; at 46 µM (top of the series)) 0.384% | fluorescence, % of fluorescein control ([16]; at 46 µM (top of the series)) 0.0445% | fluorescence, % of fluorescent control ([17]; at 46 µM (top of the series)) -0.0835% | activation [18] -0.591% | activity change, negative = cytotoxicity [19] 18.3%

Cc1cccc([N+](=O)[O-])c1[N+](=O)[O-]
inactive: Potency [2] | activity change, negative = cytotoxicity [3] -2.51% | activity, negative = cytotoxicity [4] 16.3% | activity change, negative = cytotoxicity [5] -19.8% | fluorescence, relative to Rose Bengal ([6]; at 91.3 µM (top of the series)) 0.374% | fluorescence, % of fluorescein control ([7]; at 91.3 µM (top of the series)) 0.118% | fluorescence, % of triamterene ([8]; at 91.3 µM (top of the series)) -0.378% | fluorescence, % of fluorescent control ([9]; at 91.3 µM (top of the series)) 0.91% | fluorescence, % of fluorescein ([10]; at 91.3 µM (top of the series)) -0.202% | fluorescence, % of fluorescent control ([11]; at 91.3 µM (top of the series)) -0.325% | activity change ([12]; at 91.3 µM (top of the series)) -0.19% | fluorescence, % of fluorescent control ([13]; at 91.3 µM (top of the series)) -0.591% | fluorescence, % of Rose Bengal ([14]; at 91.3 µM (top of the series)) 0.361% | fluorescence, % of fluorescent control ([15]; at 91.3 µM (top of the series)) -0.185% | fluorescence, % of fluorescein control ([16]; at 91.3 µM (top of the series)) -0.157% | fluorescence, % of fluorescent control ([17]; at 91.3 µM (top of the series)) -0.416% | activation [18] -9.56%

CC(C)N(CCO)C(C)C
inactive: activation [1] -3.98% | Potency [2] | activity change, negative = cytotoxicity [3] 15.1% | activity, negative = cytotoxicity [4] 15.9% | activity change, negative = cytotoxicity [5] 8.73% | fluorescence, relative to Rose Bengal ([6]; at 91.3 µM (top of the series)) 0.069% | fluorescence, % of fluorescein control ([7]; at 91.3 µM (top of the series)) -0.0105% | fluorescence, % of triamterene ([8]; at 91.3 µM (top of the series)) 0.237% | fluorescence, % of fluorescent control ([9]; at 91.3 µM (top of the series)) 0.336% | fluorescence, % of fluorescein ([10]; at 91.3 µM (top of the series)) 0.0128% | fluorescence, % of fluorescent control ([11]; at 91.3 µM (top of the series)) 0.148% | activity change ([12]; at 91.3 µM (top of the series)) 0.031% | fluorescence, % of fluorescent control ([13]; at 91.3 µM (top of the series)) 0.0027% | fluorescence, % of Rose Bengal ([14]; at 91.3 µM (top of the series)) 0.0198% | fluorescence, % of fluorescent control ([15]; at 91.3 µM (top of the series)) 0.25% | fluorescence, % of fluorescein control ([16]; at 91.3 µM (top of the series)) 0.0001% | fluorescence, % of fluorescent control ([17]; at 91.3 µM (top of the series)) 0.364% | activity change, negative = cytotoxicity [19] 3.38%

CN(C)CCS
inactive: Potency [2] | activity change, negative = cytotoxicity [3] 9.42% | activity, negative = cytotoxicity [4] 7.5% | activity change, negative = cytotoxicity [5] -7.7% | fluorescence, relative to Rose Bengal ([6]; at 46 µM (top of the series)) -0.756% | fluorescence, % of fluorescein control ([7]; at 46 µM (top of the series)) -0.195% | fluorescence, % of triamterene ([8]; at 46 µM (top of the series)) 0.0518% | fluorescence, % of fluorescent control ([9]; at 46 µM (top of the series)) -0.169% | fluorescence, % of fluorescein ([10]; at 46 µM (top of the series)) 0.148% | fluorescence, % of fluorescent control ([11]; at 46 µM (top of the series)) -0.0631% | activity change ([12]; at 46 µM (top of the series)) -0.091% | fluorescence, % of fluorescent control ([13]; at 46 µM (top of the series)) -0.672% | fluorescence, % of Rose Bengal ([14]; at 46 µM (top of the series)) -0.0407% | fluorescence, % of fluorescent control ([15]; at 46 µM (top of the series)) -0.124% | fluorescence, % of fluorescein control ([16]; at 46 µM (top of the series)) 0.0035% | fluorescence, % of fluorescent control ([17]; at 46 µM (top of the series)) -0.0667% | activity change, negative = cytotoxicity [19] -20%
